Assay results from patent publication US5688640A, “Methods of screening of effectors of endothelin converting enzyme-1” (Board of Regents, The University of Texas System, priority 1994, dated 1997).

Chains of the proteins cited; added tags and fusions are not shown. Lines headed by an entry give the natural chain unless they say otherwise; changes in a name come on top.
UniProt P42891: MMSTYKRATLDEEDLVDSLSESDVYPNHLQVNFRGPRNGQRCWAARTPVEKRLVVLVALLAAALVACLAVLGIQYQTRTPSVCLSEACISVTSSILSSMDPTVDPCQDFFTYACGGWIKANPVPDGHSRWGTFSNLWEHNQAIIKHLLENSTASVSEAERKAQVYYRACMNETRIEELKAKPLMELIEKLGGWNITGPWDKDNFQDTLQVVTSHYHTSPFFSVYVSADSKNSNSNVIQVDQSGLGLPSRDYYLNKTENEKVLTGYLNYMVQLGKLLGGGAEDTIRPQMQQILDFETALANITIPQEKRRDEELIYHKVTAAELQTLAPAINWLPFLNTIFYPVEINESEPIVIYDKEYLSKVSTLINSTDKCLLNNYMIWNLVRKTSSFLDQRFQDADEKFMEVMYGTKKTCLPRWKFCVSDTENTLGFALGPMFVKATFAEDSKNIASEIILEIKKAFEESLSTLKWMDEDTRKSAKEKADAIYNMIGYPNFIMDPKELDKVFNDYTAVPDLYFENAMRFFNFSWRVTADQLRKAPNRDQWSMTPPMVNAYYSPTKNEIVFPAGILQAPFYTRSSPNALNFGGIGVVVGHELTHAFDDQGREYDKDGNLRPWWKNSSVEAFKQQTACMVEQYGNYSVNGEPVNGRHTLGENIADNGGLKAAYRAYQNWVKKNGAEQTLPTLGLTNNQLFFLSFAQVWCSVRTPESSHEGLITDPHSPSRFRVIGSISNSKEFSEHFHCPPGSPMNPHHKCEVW

Target: T1, ECE-1 (Bos taurus, UniProt P42891)
T1 construct: The entire coding regions from bovine ECE-1; made in house
T1 sequence (P42891 with tags, fused parts or gaps A87G/A695G limits assumed): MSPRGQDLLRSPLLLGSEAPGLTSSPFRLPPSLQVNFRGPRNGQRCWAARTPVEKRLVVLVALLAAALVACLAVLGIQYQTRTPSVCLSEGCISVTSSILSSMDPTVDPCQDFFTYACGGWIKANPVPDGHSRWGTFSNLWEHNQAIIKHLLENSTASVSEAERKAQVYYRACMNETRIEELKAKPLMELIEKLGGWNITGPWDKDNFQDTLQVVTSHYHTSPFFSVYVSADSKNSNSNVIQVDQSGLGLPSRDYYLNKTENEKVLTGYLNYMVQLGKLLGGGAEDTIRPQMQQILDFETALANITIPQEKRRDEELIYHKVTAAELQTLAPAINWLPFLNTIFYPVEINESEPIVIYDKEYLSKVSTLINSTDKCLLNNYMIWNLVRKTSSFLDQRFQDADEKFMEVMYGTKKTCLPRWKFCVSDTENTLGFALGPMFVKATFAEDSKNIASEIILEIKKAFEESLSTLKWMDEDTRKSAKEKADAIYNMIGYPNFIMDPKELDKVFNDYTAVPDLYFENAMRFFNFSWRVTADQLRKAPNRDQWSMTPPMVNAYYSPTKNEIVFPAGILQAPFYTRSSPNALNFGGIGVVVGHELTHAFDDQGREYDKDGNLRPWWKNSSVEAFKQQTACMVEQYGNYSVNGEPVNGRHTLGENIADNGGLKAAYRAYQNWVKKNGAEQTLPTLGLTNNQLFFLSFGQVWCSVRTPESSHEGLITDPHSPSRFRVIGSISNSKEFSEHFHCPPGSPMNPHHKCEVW
Experiment: ECE activity in solubilized CHO/ECE-1 membranes/homogenates, protease inhibitors (generation of mature ET-1 from big ET-1 by EIA)
Assay type: biochemical, bovine
Details: read-out: ECE activity (% of ECE activity without inhibitors); inhibitor 100 μM; means of duplicate assays from two independent experiments

SMILES: CC(C)C[C@H](NP(=O)(O)O[C@@H]1O[C@@H](C)[C@H](O)[C@@H](O)[C@H]1O)C(=O)N[C@@H](Cc1c[nH]c2ccccc12)C(=O)O [Phosphoramidon]
- remaining ECE activity (% of control) at 100 µM: 6%
